From patent publication US20090196869A1, “ANTITUMOR COMBINATIONS CONTAINING TAXANE DERIVATIVES” (SANOFI-AVENTIS, priority 2006, published 2009)

Assays:
[1] = Toxicity (drug deaths, body weight loss, highest non-toxic dose) in tumor-bearing nude mice; assay type: in vivo; conditions: Herceptin alone, day 17, 21, 25, 29
Method: (§1) The animals subjected to the experiment, generally mice, are subcutaneously grafted bilaterally with 30 to 60 mg of a tumor fragment on day 0. The animals bearing tumors are mixed before being subjected to the various treatments and controls. In the case of treatment of advanced tumors, tumors are allowed to develop to the desired size, animals having insufficiently developed tumors being eliminated. The selected animals are distributed at random to undergo the treatments and controls. Animals not bearing tumors may also be subjected to the same treatments as the tumor-bearing animals in order to be able to dissociate the toxic effect from the specific effect on the tumor. Chemotherapy generally begins from 3 to 22 days after grafting, depending on the type of tumor, and the animals are observed every day. The different animal groups are weighed 3 or 4 times a week until the maximum weight loss is reached, and the groups are then weighed at least once a week until the end of the trial.
The study was scheduled as a 3-arm dose-response: • acetyl cyclopropyl docetaxel alone (52.1-12.4 mg/kg/iv inj, day 17, 21, 25) • Herceptin® alone (40-2.5 mg/kg/sc inj, day 17, 21, 25, 29) • Combination with a simultaneous injection of both agents. The following end points have been used: • Toxicity was declared at dosages inducing >20% body weight loss or >10% drug death, • The Highest NonToxic Dose (HNTD) was determined by the log cell kill=(T−C)/[3.32×(tumor doubling time in days)] (T meaning the time of the treated mice to reach 1 g and C the time (26.2 days) of the control mice to reach the same size).

[2] = test system: Human breast carcinoma UISO-BCA-1; assay: Antitumor activity in Human Mammary UISO-BCA-1 xenografted in nude mice (3-arm dose-response); assay type: in vivo; conditions: Herceptin alone, day 17, 21, 25, 29
Method: This efficacy may be quantified, for example, by the log10 cells killed, which is determined according to the following formula: […]
A product is considered to be active if log10 cells killed is greater than or equal to 0.7. A product is considered to be very active if log10 cells killed is greater than 2.8.
The combination, used at its own maximum tolerated dose, in which each of the constituents will be present at a dose generally not exceeding its maximum tolerated dose, will manifest therapeutic synergy when the log10 cells killed is greater than the value of the log10 cells killed of the best constituent when it is administered alone.
as §1, with “Animals not bearing tumors may also be subjected to the same treatments as the tumor-bearing animals in order to be able to dissociate the toxic effect from the specific effect on the tumor. Chemotherapy generally begins from 3 to 22 days after grafting, depending on the type of tumor, and the animals are observed every day.” left out
The tumors are measured 2 or 3 times a week until the tumor reaches approximately 2 g, or until the animal dies if this occurs before the tumor reaches 2 g. The animals are autopsied when sacrificed.
The tumor model used to evaluate each drug combination was selected, in general, on the basis of its responsiveness to each of the agents when used as monotherapy. Using i.v. intermittent schedules, full dose response trials were conducted for each single agent and each combination. In the present case, the selected tumor was a Human breast carcinoma UISO-BCA-1 derived from a malignant pleural effusion. The primary tumor was well-differentiated infiltrating ductal carcinoma of the breast. Radiotherapy post mastectomy was practiced. Three years after, chemotherapy to treat a left supraclavicular mass was done (10 courses with cytoxan, methotrexate, 5-Fu and Tamoxifen). […] This tumor model was established in nude mice from a 2.10^7 cell implant, and maintained by serial sc passage as tumor fragment.

[3] = sc 2.5 mg/kg/day (total 10.0 mg/kg)
[4] = sc 10.0 mg/kg/day (total 40.0 mg/kg)
[5] = sc 25.0 mg/kg/day (total 100.0 mg/kg)
[6] = sc 40.0 mg/kg/day (total 160.0 mg/kg)

trastuzumab [Herceptin ®]
% bwl at nadir [1, 3]: +11.1% | Drug deaths [1, 3]: 0/8 | % bwl at nadir [1, 4]: +14.4% | Drug deaths [1, 4]: 0/8 | % bwl at nadir [1, 5]: +13.8% | Drug deaths [1, 5]: 0/8 | % bwl at nadir [1, 6]: 0.5% | Drug deaths [1, 6]: 0/7 | (T-C) days [2, 3]: 1.4 days | CR [2, 3]: 0/8 | TFS d121 [2, 3]: 0/8 | log cell kill [2, 3]: 0.1 | (T-C) days [2, 4]: 0.2 days | CR [2, 4]: 0/8 | TFS d121 [2, 4]: 0/8 | log cell kill [2, 4]: 0.0 | (T-C) days [2, 5]: 0.6 days | CR [2, 5]: 0/8 | TFS d121 [2, 5]: 0/8 | log cell kill [2, 5]: 0.0 | (T-C) days [2, 6]: 0.6 days | CR [2, 6]: 0/7 | TFS d121 [2, 6]: 0/7 | log cell kill [2, 6]: 0.0
